Assay results from ChEMBL document CHEMBL4368911, “Metal-Binding Pharmacophore Library Yields the Discovery of a Glyoxalase 1 Inhibitor” (J Med Chem, 2019).

Protein sequences, listed by entry. Tags and fused reporters are not part of them. Lines headed by an entry give the natural chain unless they say otherwise; changes in a name come on top.
UniProt Q04760: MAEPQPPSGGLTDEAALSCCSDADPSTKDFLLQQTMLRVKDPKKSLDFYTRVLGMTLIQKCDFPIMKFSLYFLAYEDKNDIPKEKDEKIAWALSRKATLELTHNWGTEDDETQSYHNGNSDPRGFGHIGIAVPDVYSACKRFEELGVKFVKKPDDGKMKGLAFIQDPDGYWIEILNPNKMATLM

Target: Lactoylglutathione lyase (Homo sapiens, UniProt Q04760)
Assay: Inhibition of human GLO1

Q: With `COCCCn1ccc2cc(-c3cc(-c4ccccc4)cc(=O)n3O)cnc21` as the molecule, how does the Ki read?
A: Its Ki is 11 nM.
